# Experimental data: PubChem BioAssay AID422 (Emory University Molecular Libraries Screening Center, 2006)
# Chains of the proteins cited; added tags and fusions are not shown.
# UniProt P61981, whole entry: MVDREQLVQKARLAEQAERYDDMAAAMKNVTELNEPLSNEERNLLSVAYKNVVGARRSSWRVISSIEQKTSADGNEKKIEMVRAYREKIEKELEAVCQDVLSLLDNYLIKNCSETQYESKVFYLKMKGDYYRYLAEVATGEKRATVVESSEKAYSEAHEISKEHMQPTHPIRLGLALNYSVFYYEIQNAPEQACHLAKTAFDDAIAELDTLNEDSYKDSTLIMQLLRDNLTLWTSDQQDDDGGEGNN
# The list shows a part of the results, in another mix than the full data. Some tests of the compounds listed are not included; inactive here does not mean inactive elsewhere. Calls of active or inactive are those of the source. Cut-off read from the data, not from the text of the source: active = inhibition above about 30%; inactive = the rest.
# Biological target: 14-3-3 protein gamma (Homo sapiens) (UniProt P61981)
# Experiment: 14-3-3 gamma/Raf peptide interaction modulators – biochemical, fluorescence polarization, primary screen (AID 422);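 note: 0% = protein plus tracer without compound and 100% = blank with tracer alone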
# Details: FP, 14-3-3gamma / TMR-pS259-Raf peptide binding; at 40 µM; active compounds read high
row,Structure (SMILES),inhibition
1,CN(C)C1CCCC1OC(=O)C(O)(c1ccccc1)c1ccccc1 (centres undefined),inactive: -1.3%
2,CC(CN(C)C(C)(C)C)OC(=O)C(O)(c1ccccc1)c1ccccc1 (centres undefined),inactive: 5.98%
3,CN(C)c1cccc(C(=O)NCC2(N(C)C)CCCCC2)c1,inactive: 2.03%
4,O=C(OC1CN2CCC1CC2)C(CO)(c1ccccc1)c1ccccc1 (centres undefined),inactive: -9.02%
